Tested on: C6 cells
Assay: C6 cell spreading on PLYS or CNS myelin with protease inhibitors
Assay type: cell-based, rat
Settings: inhibitor 3.0 mM
Protocol: Rat C6, mouse NIH 3T3 and B16 cells were cultured in Dulbecco's modified Eagle's medium (DMEM) supplemented with 10% fetal calf serum (FCS), usually to maximally 70-80% confluency. Cells were harvested with a short trypsin treatment (0.1% in Ca^2+ /Mg^2+ -free Hank's medium for 90 seconds) stopped by addition of FCS in excess, collected by centrifugation. Cells were resuspended in either DMEM/FCS or defined serum-free medium (MEM) and used for experiments. Dissociated rat CNS glial cells were prepared starting from optic nerves of 6-7 days old Lewis rats as described in Section 6.1.1, supra and plated into poly-D-lysine (PLYS) coated wells (100 mm^2, 100 μl medium) at a density of 20,000 cells per well. The culture medium was an enriched L15 medium with 5% rat serum, penicillin and streptomycin. C6, 3T3 and B16 cells were added to 2 day old cultures at a concentration of 30,000 cells per well, incubated for two hours and fixed with warm 4% formalin in phosphate buffer. Inhibitory oligodendrocytes were identified by double labelling using the specific antibodies O1 and O4 (see Section 6.1.3, supra).
Myelin from rat spinal cord (CNS) or sciatic nerve (PNS) purified on a discontinuous sucrose gradient as described in Section 6.1.5., was dried overnight onto PLYS coated wells (20 μg protein/well of 100 mm^2 surface). Unbound membranes were removed by three washes with Ca^2+ /Mg^2+ -free Hank's solution. Myelin coated wells were immediately used in substrate testing assays by the addition of 9,000 cells (C6, 3T3, or B16) per cm^2. […] Experiments were scored at different time points using a phase contrast microscope equipped with a photocamera. Quantifications were done using a surface integration program; three arbitrary fields were photographed for each well at a magnitude of 80×, at least 25 cells per picture were measured. […] Results are expressed as μ^2 of projected cell surface, or as degree, which was calculated by subtracting from the projected surface value of a spreading cell, the surface value of a completely spheric cell.

NCCCCCC(=O)O [6-amino-capronate]
Spreading on: PLYS (% of control on PLYS) (150 minutes): 93 % of control on PLYS
Spreading on: CNS (% of control on PLYS) (CNS myelin, 150 minutes): 100 % of control on PLYS
Inhibition on CNS (%) (PLYS value minus CNS myelin value): 0%
